Results on one substance are retold here after PMC4601014.

A word on the Kd: it is the free concentration of one partner at which half of the binding sites on the other are occupied at equilibrium, for simple one-to-one binding.

This assay deals with GST-SV40 NLS (SV40). Description: ELISA; solid phase (microtiter-plate) binding assay; plates coated with 15 ng GST-NLS or GST per well; His/S-ΔIBB importin-α1 in PBS, 0.1% Tween20, 3% BSA, 2 mM DTT, 0.2 mM PMSF overnight at 4 °C; EDC cross-linking; detection with S-protein-HRP; one-site binding fit; triplicate. In general terms: An ELISA detects its analyte on a solid surface through an enzyme-linked reagent.

With “His/S-ΔIBB importin-α1 (mouse, residues 70–529), wild-type (from UniProt P52293 70-529) (domain or fragment)”, the Kd was 5.1 nM.
